Source: PMC11504489, “Potent Biological Activity of Fluorinated Derivatives of 2-Deoxy-D-Glucose in a Glioblastoma Model” (Biomedicines, 2024)

Target: T1, hexokinase II (HKII) (Homo sapiens, UniProt P52789)
T1 construct: gene HK2; recombinant HKII expressed in E. coli, first 16 aa from the N-terminal removed
T1 sequence (P52789 17-917): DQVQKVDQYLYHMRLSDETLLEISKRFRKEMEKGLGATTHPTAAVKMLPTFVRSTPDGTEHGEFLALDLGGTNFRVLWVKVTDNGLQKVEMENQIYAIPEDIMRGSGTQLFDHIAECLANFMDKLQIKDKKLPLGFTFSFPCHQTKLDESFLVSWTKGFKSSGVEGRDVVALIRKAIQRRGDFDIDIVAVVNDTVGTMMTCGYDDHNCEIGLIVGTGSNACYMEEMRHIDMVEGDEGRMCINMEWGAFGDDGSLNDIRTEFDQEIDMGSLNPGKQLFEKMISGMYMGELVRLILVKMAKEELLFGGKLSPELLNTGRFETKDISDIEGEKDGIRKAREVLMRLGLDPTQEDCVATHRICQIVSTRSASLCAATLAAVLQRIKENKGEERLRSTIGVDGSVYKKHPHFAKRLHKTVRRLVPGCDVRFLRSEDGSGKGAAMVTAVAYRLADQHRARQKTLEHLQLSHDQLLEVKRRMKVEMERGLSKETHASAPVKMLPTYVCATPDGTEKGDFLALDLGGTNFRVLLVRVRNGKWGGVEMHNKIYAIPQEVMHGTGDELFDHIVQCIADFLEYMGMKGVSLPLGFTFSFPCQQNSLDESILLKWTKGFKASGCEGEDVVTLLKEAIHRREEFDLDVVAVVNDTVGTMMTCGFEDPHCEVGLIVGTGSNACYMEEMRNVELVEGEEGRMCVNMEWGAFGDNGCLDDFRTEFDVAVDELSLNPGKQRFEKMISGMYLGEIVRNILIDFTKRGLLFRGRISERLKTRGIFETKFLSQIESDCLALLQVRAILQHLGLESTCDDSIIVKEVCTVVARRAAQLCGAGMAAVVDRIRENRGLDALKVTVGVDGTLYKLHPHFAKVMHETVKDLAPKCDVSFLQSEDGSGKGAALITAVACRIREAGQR
Assay: […] NMR CPMG transverse relaxation titration
Type: binding

`OC[C@H]1OC(O)[C@H](F)[C@@H](O)[C@@H]1O` (mixture of isomers) [2-FG, 2-deoxy-2-fluoro-D-glucopyranose] showed a Kd of 760 ± 190 µM.
